Antibody variant affinities, Ab-14 light chain, assay B

The measurements come from Li et al. 2023 (doi:10.1038/s41467-023-39022-2) through the FLAb antibody collection.

The target is the same throughout: PDVDLGDISGINAS, from the HR2 region of SARS-CoV-2 spike.

The variants keep the heavy chain, the linker and the frameworks of Ab-14 (scFv order VH, a (GGGGS)3 linker, VL).
VH: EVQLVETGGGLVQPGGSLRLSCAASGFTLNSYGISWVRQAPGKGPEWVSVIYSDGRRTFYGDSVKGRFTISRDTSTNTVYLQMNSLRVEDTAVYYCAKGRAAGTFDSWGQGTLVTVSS
VL: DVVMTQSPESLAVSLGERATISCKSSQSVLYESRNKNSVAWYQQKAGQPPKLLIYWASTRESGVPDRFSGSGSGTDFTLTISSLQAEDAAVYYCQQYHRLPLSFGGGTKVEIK

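The variants were designed computationally from a first round of random CDR variants and then made and measured. Their group label is 14L_GP_Gibbs (GP: Gaussian process model; Gibbs: Gibbs sampling; a sequence that several methods proposed may carry one label only). The assay is AlphaSeq: two haploid yeast populations carry antibody and antigen on their surface. The frequency of each diploid, read from paired DNA barcodes, reflects how well the two displayed proteins bind. Each replicate has its own calibration line, from reference interactions of the BCL2 family. Mating was done six times.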

Changes read parent residue, position, new residue, counted from the first residue of the VL shown. Scale: log10 of Kd in nM, estimated from mating counts; low values are strong binders. A mean of the replicates is given; it leaves out those without a signal. An entry "nd" has no value in the source: the pair was not observed among the diploids in that replicate. This suggests poor binding but is not conclusive. The authors averaged sequences with at least three values out of six and counted those with two or fewer as poor binders. Nonspecific signal, from three strains lacking the peptide, appeared in 4% of pairings of all light chain designs, centred on 2.64 (5% of these signals below 1.59); values are not corrected for it. The control count says in how many pairings with the empty strains this scFv gave a signal, with their mean in brackets. The range of this assay differs from that of the first round, and the authors advise against merging the two.

changes	log10 Kd, replicates	log10 Kd (nM), mean	empty controls
S25Q+Q27M+L30M+Y31M+E32G+W56S+S58H+T59K+S62H	nd / 3.04 / nd / 3.06 / 3.32 / nd	3.14	0 of 18
S25Q+V29Q+S33D+R34G+K36G+W56N+T59V	0.62 / 0.64 / 0.83 / 0.53 / 0.72 / 0.90	0.71	1 of 18 (1.03)
S25L+S26E+S28L+V29H+W56Q+S62M	1.06 / 1.42 / 0.52 / 0.42 / 0.18 / 1.04	0.77	0 of 18
S25V+S26Q+V29E+Y31G+N35H+K36D+W56N+T59K	0.39 / 0.22 / 0.22 / 0.10 / 0.02 / 0.46	0.24	0 of 18
S25F+S28M+V29D+S38Q+W56D+E61S	0.31 / 0.08 / 0.11 / -0.03 / 0.10 / 0.23	0.13	5 of 18 (3.21)
S25L+S26Q+Q27M+V29E+Y31P+T59L+S62L	1.27 / 0.88 / 0.55 / 1.11 / 0.45 / 1.27	0.92	1 of 18 (2.31)
S25L+S26Q+V29E+Y31P+W56E+T59L+E61L+S62L	0.08 / -0.03 / -0.39 / -0.44 / -0.34 / -0.23	-0.23	0 of 18
S25M+L30P+S33E+K36L+S38N+W56N+A57G	0.47 / 0.21 / -0.22 / 0.00 / 0.11 / 0.04	0.10	0 of 18
S25L+Q27C+S28G+L30D+W56G+Q96A	0.41 / -0.17 / -0.18 / -0.22 / -0.05 / 0.00	-0.03	1 of 18 (4.80)
S25L+V29F+L30W+S33E+K36P+W56N+T59K	-0.37 / -0.37 / -0.53 / -0.50 / -0.28 / -0.47	-0.42	1 of 18 (2.67)
S25L+Q27N+L30W+Y31M+S38N+W56H+T59K	nd / 2.05 / nd / nd / nd / nd	2.05	0 of 18
S25W+Q27M+L30M+Y31G+W56N	0.34 / -0.01 / -0.04 / 0.15 / 0.06 / 0.27	0.13	0 of 18
S25V+S28Q+V29G+E32G+K36A+W56N+S58D+S62Q	-0.18 / -0.28 / -0.44 / -0.69 / -0.18 / 0.09	-0.28	1 of 18 (3.07)
S25L+S26H+N35H+S38N+W56N+T59Q	1.94 / 1.83 / 1.33 / 1.25 / 1.89 / 1.83	1.68	1 of 18 (2.18)
S25L+Q27N+V29N+K36G+W56N+E61L+S62H	0.76 / 0.52 / 0.72 / 0.29 / 0.22 / 0.60	0.52	0 of 18
S25L+S26M+Q27G+V29M+S33Q+N35M+K36T+W56N+T59V+E61M	0.77 / 0.69 / 0.35 / 0.69 / 0.45 / 0.77	0.62	2 of 18 (2.85)
S25L+Q27M+L30M+Y31M+S33Q+W56S+S58N+E61M+S62E	0.02 / -0.22 / -0.14 / -0.22 / -0.12 / 0.09	-0.10	0 of 18
S25M+V29N+L30P+K36W+W56N+T59K+E61L	0.29 / 0.11 / 0.46 / 0.18 / 0.23 / 0.37	0.27	2 of 18 (1.77)
S25A+S26M+Q27W+V29W+E32W+W56N+T59Q+S62H	0.57 / 0.37 / 0.46 / 0.11 / 0.21 / 0.81	0.42	0 of 18
S25L+S26Q+S28Q+V29S+L30E+E32W+W56Q+S62Q	0.38 / 0.58 / 0.17 / 0.15 / 0.52 / 0.42	0.37	0 of 18
S25A+S26Q+V29E+S33D+K36Q+W56N+T59Q+E61L	0.23 / 0.02 / 0.04 / -0.04 / -0.03 / 0.06	0.05	0 of 18
S25W+S26Q+Q27Y+V29W+Y31G+E32S+W56E+A57G	0.64 / 1.16 / 0.93 / 0.79 / 0.93 / 0.75	0.87	3 of 18 (2.72)
S25W+S26E+L30M+Y31G+R34V+W56N	0.06 / -0.10 / 0.07 / -0.17 / -0.04 / 0.14	-0.01	1 of 18 (4.87)
S25E+V29E+L30P+R34A+W56N+S58M+T59Q+E61M	0.02 / -0.16 / -0.17 / -0.39 / -0.12 / -0.11	-0.15	2 of 18 (2.91)
S25L+S33P+K36S+N37Q+W56D+E61Y	-0.13 / -0.09 / -0.40 / -0.59 / -0.68 / -0.41	-0.39	0 of 18
S25L+S26D+L30M+Y31L+S38A+W56E+E61M+Q96D	0.26 / 0.07 / 0.24 / -0.09 / 0.16 / 0.35	0.16	2 of 18 (2.46)
S25L+S26Q+V29E+K36V+W56D+T59K	-0.13 / -0.05 / -0.23 / -0.35 / -0.19 / -0.08	-0.17	1 of 18 (3.13)
S25L+S26M+Q27T+V29D+N35M+K36V+S38A+W56D+E61M+S62D	0.54 / 0.43 / 0.30 / 0.73 / 0.22 / 0.82	0.51	0 of 18
S25L+S26M+V29A+Y31L+K36V+S38N+W56Q+T59Q+E61M+S62L+Q96D	0.71 / 0.47 / 0.53 / 0.47 / 0.62 / 0.57	0.56	1 of 18 (3.16)
S25V+Q27P+V29E+S33D+K36W+W56Q+T59Q+E61C	0.16 / 0.40 / 0.26 / 0.13 / 0.08 / 0.23	0.21	0 of 18